The source of these data is patent US20190322750A1 (Y BIOLOGICS, published 2019).

In the experiment the target is T1, PD-L2-Fc (human, UniProt Q9BQ51).
T1 construct: recombinant Fc fusion; also called human PD-L2-Fc (#10292-H02H, Sino)
T1 sequence (ligand-Fc, looked up): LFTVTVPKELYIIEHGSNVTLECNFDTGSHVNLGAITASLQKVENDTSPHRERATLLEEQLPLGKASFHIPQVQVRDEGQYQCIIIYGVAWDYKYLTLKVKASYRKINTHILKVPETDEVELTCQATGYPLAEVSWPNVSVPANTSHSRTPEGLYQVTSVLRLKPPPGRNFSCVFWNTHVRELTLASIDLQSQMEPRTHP
Nature of the experiment: ELISA on coated PD-L2-Fc, OD450nm.

B1: PD1-His (receptor)
chain: LDSPDRPWNPPTFSPALLVVTEGDNATFTCSFSNTSESFVLNWYRMSPSNQTDKLAAFPEDRSQPGQDCRFRVTQLPNGRDFHMSVVRARRNDSGTYLCGAISLAPKAQIKESLRAELRVTERRAEVPTAHPSPSPRPAGQFQTLV
notes: also called human PD-1-His (S1352, Y-Biologics); not shown: exact construct limits of Y-Biologics S1352
Consider B1, for which the binding result was “binds”.
